Read-outs that look alike come from different tables or passages of the source.
Legend:
HPEKp cells = assay: proliferation assay with human epidermal keratinocyte progenitors (HPEKp), selectivity versus MDA-MB-231
C2C12 cells = assay: alamarBlue proliferation assay with C2C12 cells; conditions: read-out: Activity on C2C12: IC50; C2C12 murine myoblast cells, RPMI 1640 medium, 10% FBS
From the text: (§1) These hyperproliferative processes can be benign or malignant and include hyperplasia, neoplasia, cancer and pre-cancerous lesions, and metastases. The antiproliferative activities of compounds falling under general formula (I) were investigated on human primary epidermal keratinocytes (HPEK) and human, murine and canine cell lines derived from hyperproliferative tissue or different cancer types, including MDA-MB-231, ZR-75-30, HCC-1395, HCC-1937, and T-47D all originating from cancer of the breast, JURKAT, RPMI-8402, LOUCY, TANQUE, REC-1, HL-60, NB-4 all originating from different types of blood cancer including lymphoma and leukemia of T-cells, B-cells and myeloid cells, TT originating from cancer of the neuroendocrine system, HeLa originating from cancer of the cervix, 23132/87, SW-948, and HCT-116 all originating from cancer of the gastrointestinal tract including stomach and colon, BHY originating from cancer of the mucosal epithelium, A-431 originating from cancer of the skin, HEP-G2 originating from cancer of the liver, NCI-H460 and A-549 both originating from cancer of the lung, PANC-1 originating from cancer of the pancreas, U-87 MG originating from cancer of the brain, A-375 and RVH-421 both originating from cancer of melanocytes, SW-1353 originating from cancer of bone-derived chondrocytes, C2C12 a mouse cell line originating from hyperproliferative muscle progenitor cells, LL/2 a mouse cell line originating from cancer of the lung, CF21.T a dog cell line originating from cancer of the connective tissue. To this end, according cells were seeded into 96-well plates (CORNING #3598) suitable for fluorescence assays at following initial cell numbers: 1000 cells per well for HPEK; 3000 cells per well for MDA-MB-231, 8000 cells per well for ZR-75-30, 1500 cells per well for HCC-1395, 1500 cells per well for HCC-1937, 3000 cells per well for T-47D, 1500 cells per well for JURKAT, 5000 cells per well for RPMI-8402, 9000 cells per well for LOUCY, 1500 cells per well for TANQUE, 9000 cells per well for REC-1, 1000 cells per well for HL-60, 1000 cells per well for NB-4, 9000 cells per well for TT, 2000 cells per well for HeLa, 2000 cells per well for 23132/87, 9000 cells per well for SW-948, 700 cells per well for HCT-116, 1500 cells per well for BHY, 700 cells per well for A-431, 1500 cells per well for HEP-G2, 500 cells per well for NCI-H460, 1000 cells per well for A-549, 1500 cells per well for PANC-1, 2500 cells per well for U-87 MG, 700 cells per well for A-375, 1500 cells per well for RVH-421, 2000 cells per well for SW-1353, 500 cells per well for C2C12, 500 cells per well for LL/2, and 3000 cells per well for CF21.T. In a volume of 90 μL per well of culture medium the cells were treated with compounds at indicated final concentrations by adding 10 μL per well of 10× compound working solutions from 1:100 pre-diluted 1000× compound DMSO stock-solutions in H2O (Water For Injection, WFI, Fisher Scientific, Gibco™ #A12873) or with the empty carrier DMSO (AppliChem, #A3672) at 0.1% v/v as control yielding a final volume of 100 μL per well. At day 5 after starting the treatments the cells were subjected to the alamarBlue® Proliferation Assay (Bio-Rad Serotec GmbH, BUF012B) according to the protocol of the manufacturer. The readout was taken with a multi-well plate-reader (Tecan Spark®) in the fluorescence mode with applying a filter for excitation at 560 nm (band width 10 nm) and for emission at 590 nm (band width 10 nm). Treatment for maximum proliferation inhibition with the commercial cytotoxic compound (S)-(+)-camptothecin (Fluorochem #M01564) at a concentration of 10 μM was included on each plate for assay quality control. Some of the test compounds of the present invention may have been obtained and applied as their salt forms.
(§2) The assays were performed in duplicate or more replicates of independent single experiments each containing a three- to six-fold replicate for every condition. […]

SW-1353 cells = assay: alamarBlue proliferation assay with SW-1353 cells (glucose-free L-15 medium); conditions: read-out: Activity on SW-1353: IC50, Leibovitz's L-15 medium, 10% FBS, 0% CO2
MDA-MB-231 cells = assay: alamarBlue proliferation assay with MDA-MB-231 cells (glucose-free Leibovitz's L-15 medium)
A-549 cells = assay: alamarBlue proliferation assay with A-549 cells; conditions: read-out: Activity on A-549: IC50, DMEM medium, 10% FBS
CF21.T cells = assay: alamarBlue proliferation assay with CF21.T cells; conditions: read-out: Activity on CF21.T: IC50; CF21.T canine cells, DMEM medium, 10% FBS
From the text: as §1, §2

TANQUE cells = assay: alamarBlue proliferation assay with TANQUE cells; conditions: read-out: Activity on TANOUE: IC50, RPMI 1640 medium, 10% FBS
HEP-G2 cells = assay: alamarBlue proliferation assay with HEP-G2 cells; conditions: read-out: Activity on HEP-G2: IC50, RPMI 1640 medium, 10% FBS
LL/2 cells = assay: alamarBlue proliferation assay with LL/2 cells; conditions: read-out: Activity on LL/2: IC50; LL/2 murine Lewis lung carcinoma cells, DMEM medium, 10% FBS
NB-4 cells = assay: alamarBlue proliferation assay with NB-4 cells; conditions: read-out: Activity on NB-4: IC50, RPMI 1640 medium, 10% FBS
BHY cells = assay: alamarBlue proliferation assay with BHY cells; conditions: read-out: Activity on BHY: IC50, DMEM medium, 10% FBS
HCT-116 cells = assay: alamarBlue proliferation assay with HCT-116 cells; conditions: read-out: Activity on HCT-116: IC50, McCoy's 5A medium, 10% FBS
A-375 cells = assay: alamarBlue proliferation assay with A-375 cells; conditions: read-out: Activity on A-375: IC50, DMEM medium, 10% FBS
From the text: as §1, §2

A-431 cells = assay: alamarBlue proliferation assay with A-431 cells; conditions: read-out: Activity on A-431: IC50, DMEM medium, 10% FBS
NCI-H460 cells = assay: alamarBlue proliferation assay with NCI-H460 cells; conditions: read-out: Activity on NCI-H460: IC50, RPMI 1640 medium, 10% FBS
[1] = read-out: Activity (HPEK): antiproliferative activity on HPEK cells, IC50 category, HPEK cells cultivated in CnT-Prime medium
[2] = read-out: Activity (MDA): antiproliferative activity on MDA-MB-231 cells, IC50 category, MDA-MB-231 cells cultivated in glucose-free Leibovitz's L-15 medium
[3] = read-out: Activity on MDA-MB-231 (IC50), glucose-free Leibovitz's L-15, 10% FBS, day 5, alamarBlue
[4] = read-out: Activity (HPEK), HPEK cells (HPEKp), antiproliferative activity, class by IC50
[5] = read-out: Activity (MDA), MDA-MB-231 cells, antiproliferative activity, class by IC50

SMILES: O=C(c1ccc(Oc2ccc(C3CCC4(CC3)OCCO4)cc2CO)cc1)N1CCCN(Cc2ccccc2)CC1
- IC50 (HPEKp cells; [1]): > 10 µM
- IC50 (C2C12 cells): ≤ 20 µM
- IC50 (SW-1353 cells): ≤ 1000 nM
- IC50 (MDA-MB-231 cells; [2]): < 1000 nM
- IC50 (MDA-MB-231 cells; [3]): ≤ 200 nM
- IC50 (A-549 cells): ≤ 5000 nM

SMILES: O=C(c1ccc(Oc2ccc(C3CCC4(CC3)OCCO4)cc2CO)cc1)N1CCN(Cc2cc3ccccc3[nH]2)CC1
- IC50 (HPEKp cells; [1]): < 10 µM
- IC50 (C2C12 cells): ≤ 1 µM
- IC50 (MDA-MB-231 cells; [2]): < 1000 nM
- IC50 (MDA-MB-231 cells; [3]): ≤ 200 nM

SMILES: O=Cc1cc(C2CCC3(CC2)SCCS3)ccc1Oc1ccc(C(=O)N2CCN(Cc3ccccc3)CC2)cc1
- IC50 (HPEKp cells; [1]): < 5 µM
- IC50 (C2C12 cells): ≤ 20 µM
- IC50 (MDA-MB-231 cells; [2]): < 1000 nM
- IC50 (MDA-MB-231 cells; [3]): ≤ 200 nM

SMILES: O=Cc1cc(C2CCC3(CC2)OCCO3)ccc1Oc1ccc(C(=O)N2CCCN(Cc3ccc(Cl)cc3)CC2)cc1
- IC50 (HPEKp cells; [1]): < 5 µM
- IC50 (C2C12 cells): ≤ 5 µM
- IC50 (MDA-MB-231 cells; [2]): < 1000 nM
- IC50 (MDA-MB-231 cells; [3]): ≤ 200 nM

SMILES: O=Cc1cc(C2CCC3(CCCCO3)CC2)ccc1Oc1ccc(C(=O)N2CCN(Cc3ccccc3)CC2)cc1 (stereo not drawn)
- IC50 (HPEKp cells; [1]): < 5 µM
- IC50 (C2C12 cells): ≤ 5 µM
- IC50 (MDA-MB-231 cells; [2]): < 1000 nM
- IC50 (MDA-MB-231 cells; [3]): ≤ 200 nM

SMILES: NS(=O)(=O)c1ccc(CN2CCN(C(=O)c3ccc(Oc4ccc(C5CCC6(CC5)OCCO6)cc4CO)cc3)CC2)cc1
- IC50 (HPEKp cells; [1]): > 10 µM
- IC50 (C2C12 cells): ≤ 5 µM
- IC50 (MDA-MB-231 cells; [2]): < 1000 nM
- IC50 (MDA-MB-231 cells; [3]): ≤ 200 nM

SMILES: COC1CCC(c2ccc(Oc3ccc(C(=O)N4CCN(Cc5ccc(Cl)nc5)CC4)cc3)c(CO)c2)CC1 (stereo not drawn)
- IC50 (HPEKp cells; [4]): < 10 µM
- IC50 (CF21.T cells): ≤ 1000 nM
- IC50 (TANQUE cells): ≤ 200 nM
- IC50 (HEP-G2 cells): ≤ 200 nM
- IC50 (MDA-MB-231 cells; [5]): < 1000 nM
- IC50 (MDA-MB-231 cells; [3]): ≤ 200 nM
- IC50 (LL/2 cells): ≤ 200 nM
- IC50 (A-549 cells): ≤ 200 nM
- IC50 (NB-4 cells): ≤ 200 nM
- IC50 (BHY cells): ≤ 200 nM
- IC50 (HCT-116 cells): ≤ 200 nM

SMILES: COC1CCC(c2ccc(Oc3ccc(C(=O)N4CCN(Cc5cnc6ccccc6c5)CC4)cc3)c(CO)c2)CC1 (stereo not drawn)
- IC50 (HPEKp cells; [4]): < 10 µM
- IC50 (CF21.T cells): ≤ 1000 nM
- IC50 (TANQUE cells): ≤ 200 nM
- IC50 (HEP-G2 cells): ≤ 200 nM
- IC50 (MDA-MB-231 cells; [5]): < 1000 nM
- IC50 (MDA-MB-231 cells; [3]): ≤ 200 nM
- IC50 (LL/2 cells): ≤ 200 nM
- IC50 (A-549 cells): ≤ 200 nM
- IC50 (NB-4 cells): ≤ 200 nM
- IC50 (BHY cells): ≤ 200 nM
- IC50 (HCT-116 cells): ≤ 200 nM

SMILES: O=Cc1cc(C2CCC3(CC2)SCCS3)ccc1Oc1ccc(C(=O)N2CCN(Cc3ccc(Cl)cc3)CC2)cc1
- IC50 (CF21.T cells): ≤ 1000 nM
- IC50 (TANQUE cells): ≤ 200 nM
- IC50 (MDA-MB-231 cells; [3]): ≤ 200 nM
- IC50 (A-375 cells): ≤ 200 nM
- IC50 (LL/2 cells): ≤ 1000 nM
- IC50 (A-549 cells): ≤ 200 nM
- IC50 (NB-4 cells): ≤ 200 nM
- IC50 (BHY cells): ≤ 200 nM
- IC50 (HCT-116 cells): ≤ 200 nM

SMILES: O=C(c1ccc(Oc2ccc(C3CCC4(CC3)OCCO4)cc2CO)cc1)N1CCN(Cc2ccc(OC(F)(F)F)cc2)CC1
- IC50 (HPEKp cells; [1]): > 10 µM
- IC50 (C2C12 cells): ≤ 1 µM
- IC50 (A-431 cells): ≤ 200 nM
- IC50 (TANQUE cells): ≤ 200 nM
- IC50 (SW-1353 cells): ≤ 200 nM
- IC50 (MDA-MB-231 cells; [2]): < 1000 nM
- IC50 (MDA-MB-231 cells; [3]): ≤ 200 nM
- IC50 (A-375 cells): ≤ 200 nM
- IC50 (LL/2 cells): ≤ 200 nM
- IC50 (A-549 cells): ≤ 200 nM
- IC50 (NB-4 cells): ≤ 200 nM
- IC50 (BHY cells): ≤ 200 nM
- IC50 (HCT-116 cells): ≤ 200 nM

SMILES: CC(=O)Oc1ccc(CN2CCN(C(=O)c3ccc(Oc4ccc(C5CCC6(CC5)OCCO6)cc4C=O)cc3)CC2)cc1
- IC50 (C2C12 cells): ≤ 5 µM
- IC50 (MDA-MB-231 cells; [3]): ≤ 200 nM
- IC50 (NCI-H460 cells): ≤ 20 µM

SMILES: O=Cc1cc(C2CCC3(CC2)OCCO3)ccc1Oc1ccc(C(=O)N2CCN(Cc3ccc(OC(F)(F)F)cc3)CC2)cc1
- IC50 (C2C12 cells): ≤ 1 µM
- IC50 (MDA-MB-231 cells; [3]): ≤ 200 nM

SMILES: COC1CCC(c2ccc(Oc3ccc(C(=O)N4CCN(Cc5ccc6ccccc6c5)CC4)cc3)c(CO)c2)CC1 (stereo not drawn)
- IC50 (HPEKp cells; [4]): < 5 µM
- IC50 (CF21.T cells): ≤ 200 nM
- IC50 (TANQUE cells): ≤ 200 nM
- IC50 (HEP-G2 cells): ≤ 200 nM
- IC50 (MDA-MB-231 cells; [5]): < 1000 nM
- IC50 (MDA-MB-231 cells; [3]): ≤ 200 nM
- IC50 (LL/2 cells): ≤ 200 nM
- IC50 (A-549 cells): ≤ 200 nM
- IC50 (NB-4 cells): ≤ 200 nM
- IC50 (BHY cells): ≤ 200 nM
- IC50 (HCT-116 cells): ≤ 200 nM

SMILES: CN(C)S(=O)(=O)c1ccc(CN2CCN(C(=O)c3ccc(Oc4ccc(C5CCC6(CC5)OCCO6)cc4C=O)cc3)CC2)cc1
- IC50 (C2C12 cells): ≤ 0.2 µM
- IC50 (MDA-MB-231 cells; [3]): ≤ 200 nM

SMILES: O=Cc1cc(C2CCC3(CC2)OCCO3)ccc1Oc1ccc(C(=O)N2CCCN(Cc3ccc(C(F)(F)F)cc3)CC2)cc1
- IC50 (C2C12 cells): ≤ 1 µM
- IC50 (MDA-MB-231 cells; [3]): ≤ 200 nM
